Test system: tissue-engineered dhBMECs microvessels
Assay: BBB opening in tissue-engineered BBB microvessels (500 kDa dextran leakage)
Type: cell-based, human
Details: retrospective analysis
Description: Three-dimensional blood-brain barrier microvessels were fabricated as previously reported (FIGS. 10A and 10B) [Linville, R. M., et al., Biomaterials, 2019. 190-191: p. 24-37] 150 μm diameter and 1 cm long channels were patterned in 7 mg mL^−1 type I collagen (Corning) using nitinol wire (Malin Co.) housed within polydimethylsiloxane (PDMS; Dow Corning). Channels were cross-linked by incubation in 20 mM genipin (Wako Biosciences) for 2 hours to increase cell adhesion. 2dhBMECs were suspended in BBB induction medium at a concentration of 5×10^6 cells mL^−1 and seeded into channels. Microvessels were perfused using BBB induction medium for 24 hours and then switched to BBB maintenance medium. […]
Live-cell imaging was conducted to study dynamic changes in in vitro BBB permeability and microvessel structure. […] Phase contrast and fluorescence images were acquired every two minutes with the focal plane set to the microvessel midplane. […]
Image processing was performed using ImageJ (NIH) to quantify BBB opening (FIGS. 11A-11D). […] The permeability (cm s^−1) was calculated using P=(r/2)(1/ΔI)(dI/dt), where r is the vessel radius, ΔI is the increase in fluorescence intensity upon perfusion of the fluorophore, and (dI/dt) is the rate of increase in fluorescence intensity as solute exits into the gel. […]

For `OC[C@@H](O)[C@@H](O)[C@H](O)[C@H](O)CO` [mannitol, reference compound], the “threshold dose to induce opening” value was 7 M·min.

Reference: US20240009269A1 (priority 2020, published 2024)
